# Antibody variant affinities, Ab-14 heavy chain, assay 1

The measurements come from Engelhart et al. 2022 (doi:10.1038/s41597-022-01779-4) through the FLAb antibody collection.

Binding partner: SARS-CoV-2 spike HR2 peptide, sequence PDVDLGDISGINAS.

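In library AAYL49, one, two or three CDR residues were substituted; doubles and triples were drawn at random. The scFvs were displayed on barcoded MATa yeast, the peptide on MATalpha yeast. Mating (16 h, 30 °C) was followed by selection of diploids and sequencing of their barcodes. Each replicate has its own calibration line, from reference interactions of the BCL2 family. Mating was done three times.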

Ab-14 is the parent antibody, in scFv form: VH, then the linker GGGGSGGGGSGGGGS, then VL. The light chain is unchanged in all variants.
VH: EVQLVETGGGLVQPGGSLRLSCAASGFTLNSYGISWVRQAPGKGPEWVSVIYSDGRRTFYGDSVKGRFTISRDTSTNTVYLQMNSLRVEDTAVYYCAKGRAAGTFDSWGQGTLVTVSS
VL: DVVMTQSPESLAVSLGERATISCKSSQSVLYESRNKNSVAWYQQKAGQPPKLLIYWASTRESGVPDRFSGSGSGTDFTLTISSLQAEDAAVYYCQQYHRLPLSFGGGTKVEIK

Each variant is given by its three heavy chain CDRs, as the data file delimits them; those of the parent are GFTLNSYGIS, VIYSDGRRTFYGDSVK, GRAAGTFDS. Scale: log10 of Kd in nM, estimated from mating counts; low values are strong binders. The mean shown is taken over the replicates in which the pair was detected. "n.d." marks a missing value. The strain was present, yet no cells mated with the target were sequenced in that replicate, which points to weak or no binding.

CDR-H1	CDR-H2	CDR-H3	log10 Kd, replicates	log10 Kd (nM), mean	control signals
GFTLNSYGIS	VEYSDGRRWFYGDSVK	GRAAGTFDS	n.d. n.d. n.d.	n.d.	0 of 9
GFTLNSVGIS	VIYSDMRRTFYGDSVK	GEAAGTFDS	n.d. n.d. n.d.	n.d.	0 of 9
GFTLNSYGIS	VIYSNGRRTFYGDLVK	GRAAPTFDS	n.d. n.d. n.d.	n.d.	0 of 9
GFTLNSYGIS	VIYSDGRRTHYGDSVK	GRARGQFDS	n.d. n.d. n.d.	n.d.	2 of 9 (5.20)
GFTLNSYGDS	VIYSDGRRTFYGDSVK	GRAARTFDL	n.d. n.d. n.d.	n.d.	1 of 9 (3.84)
GFTLNSYGIS	NIYSDGRQTFIGDSVK	GRAAGTFDS	n.d. n.d. n.d.	n.d.	0 of 9
GFTLNSYGIS	VIYSDGRRTEYGDSRK	GRAAGTFQS	n.d. n.d. n.d.	n.d.	0 of 9
GFTLHSYGIS	VIYSDGRRTFYGDSVK	GRAPGTFDS	3.27 3.32 3.16	3.25	1 of 9 (4.72)
GFTLNSYGDS	VIFSDGRRTFYGWSVK	GRAAGTFDS	n.d. n.d. n.d.	n.d.	0 of 9
GFTLNSYGIS	VIYSDGRRTFIGDSVK	DRAANTFDS	4.74 n.d. n.d.	4.74	3 of 9 (4.41)
GFTLNSQGIS	VIYSDGRRTFYGDPVK	GRAAGTFDH	n.d. n.d. n.d.	n.d.	0 of 9
GFTQNSYGIS	VIYSDGRRDFYGDSKK	GRAAGTFDS	n.d. n.d. n.d.	n.d.	1 of 9 (5.20)
GFTLNSYGIS	VIYSSGRRTFYGDSVK	TRFAGTFDS	n.d. n.d. n.d.	n.d.	0 of 9
GFTLNSYGIS	SIYSDARRTFYGDSRK	GRAAGTFDS	3.87 n.d. 3.97	3.92	3 of 9 (3.44)
GFTLNSYGIS	TIYSDYRRTFYNDSVK	GRAAGTFDS	n.d. n.d. n.d.	n.d.	1 of 9 (2.80)
GFTLNSYSIS	VIYSDGRRTFYGDSVK	GRAAGGFDS	n.d. n.d. n.d.	n.d.	1 of 9 (4.53)
GFTLNSYGIS	VIYSDGRRTFYGDSVK	GRAYGTFDD	n.d. 4.21 n.d.	4.21	2 of 9 (3.22)
GFTMNSYGIS	VIYSDGRRTFYCDSVK	GRAAGTFDS	2.23 2.69 2.36	2.43	2 of 9 (4.30)
GNTLNSYGIS	VIYSDGRRTFYGDSVP	GRAAGTIDS	n.d. 3.67 n.d.	3.67	2 of 9 (3.93)
GPTLNSYGIS	VIYSDMRRTFYGDSVK	GRATGTFDS	n.d. n.d. n.d.	n.d.	1 of 9 (3.55)
GFTLNSYGIS	VIYSDGRRTAYGDSVK	GRAAGTLES	n.d. n.d. 5.84	5.84	4 of 9 (3.98)
GFTLNSYGIS	VINSDLRRTFYGDSVK	TRAAGTFDS	n.d. n.d. n.d.	n.d.	0 of 9
GFPLNSYGIM	VIYSDGRCTFYGDSVK	GRAAGTFDS	n.d. 3.13 n.d.	3.13	0 of 9
GFTLNSYGIS	VIYSDGRIFAYGDSVK	GRAAGTFDS	n.d. n.d. n.d.	n.d.	0 of 9
GFTLNSYGIS	VIYSVGRRTAYGDSIK	GRAAGTFDS	n.d. n.d. n.d.	n.d.	0 of 9
GFTLNSYGIS	VIYSDGRRTFYCRSVK	GRAHGTFDS	n.d. n.d. n.d.	n.d.	0 of 9
GFTLNSYGIS	VIYSDGRRTDYGDSVK	GRAAGSFDC	3.99 3.80 5.16	4.32	6 of 9 (4.80)
GFTLNSYGIS	HIYSDGRRTFYGDSWK	GRADGTFDS	n.d. n.d. n.d.	n.d.	0 of 9
GFTLNSYGIS	VIYSWGRRTFYGDSLK	GRAAGTFDS	n.d. n.d. n.d.	n.d.	2 of 9 (4.85)
GFTLNSYLIS	VIYSDERRTFYGDSVK	GRATGTFDS	n.d. n.d. n.d.	n.d.	0 of 9
GFTLNSYGES	VIYSDGRRTFYGDSTK	GRAHGTFDS	3.43 n.d. n.d.	3.43	0 of 9
GFTLNSYGIS	VIYSDGRRTFYGDSVK	GTAAGTMDN	n.d. n.d. n.d.	n.d.	0 of 9
GFVLNSYGIS	VIYSDLRRTFYGDSVK	GRAAGEFDS	n.d. 3.27 n.d.	3.27	2 of 9 (4.01)
GQTLNSYGIS	VIISDGRRTFYEDSVK	GRAAGTFDS	n.d. n.d. n.d.	n.d.	1 of 9 (4.06)
GFWLNSYGIS	VIYSDGRRKFYGDSVK	GRAAGTFDS	2.33 1.59 1.91	1.94	0 of 9
GFTLTSYGIS	VIYSDGRRTFYGDSVQ	GRAAGTFCS	n.d. n.d. n.d.	n.d.	0 of 9
GFTLNSYGGS	VIYSDGRRTFYGDSVK	GRALGTFDH	n.d. n.d. n.d.	n.d.	0 of 9
GFILNSYGIS	VIYSDGRRTWYGDSVK	GRAAGTFDS	2.24 1.76 3.22	2.41	0 of 9
GHTLNSYGIS	VRYSDRRRTFYGDSVK	GRAAGTFDS	n.d. n.d. n.d.	n.d.	1 of 9 (3.16)
GFTLNSYGIS	VIYIGGRRTFYGDSVK	GMAAGTFDS	n.d. n.d. n.d.	n.d.	0 of 9
GFTLNVCGIS	VIYSDGRRTFYGDSVK	GAAAGTFDS	n.d. n.d. n.d.	n.d.	0 of 9
GFTLNSYGIS	VIYSDGRRTFYGDNVK	GRADGTMDS	1.30 1.52 1.79	1.54	2 of 9 (3.62)
GFTLNSYGIS	VIYSDTRRTFYGDSVK	GHAAGTFDM	n.d. 3.75 n.d.	3.75	1 of 9 (2.26)
HFTLNSAGIP	VIYSDGRRTFYGDSVK	GRAAGTFDS	4.15 n.d. n.d.	4.15	1 of 9 (3.27)
GFYLNSYGKS	VIYSDGRRTFYGDSVK	GVAAGTFDS	4.75 3.79 n.d.	4.27	6 of 9 (4.75)
GFTLNSYGIS	VIYSDGRRTFYGDSVK	GMALGTDDS	n.d. n.d. n.d.	n.d.	2 of 9 (4.43)
DFTLNSYGDS	VIYSDGRRTFYGDSVK	GRAAGTFDS	n.d. n.d. 4.06	4.06	1 of 9 (4.03)
GFTLNSYGIS	VIESDGRRTFYGDSVK	GRPLGTFDS	n.d. n.d. n.d.	n.d.	0 of 9
GFTLNSYGIS	VIYSDGRRTFYGDSVK	GRAAGTIDS	n.d. n.d. n.d.	n.d.	0 of 9

Again, the first 3 entries without any signal:

{"CDR-H1": "GFTLNSYGIS", "CDR-H2": "VEYSDGRRWFYGDSVK", "CDR-H3": "GRAAGTFDS", "log10 Kd, replicates": "n.d. n.d. n.d.", "log10 Kd (nM), mean": "n.d.", "control signals": "0 of 9"}
{"CDR-H1": "GFTLNSVGIS", "CDR-H2": "VIYSDMRRTFYGDSVK", "CDR-H3": "GEAAGTFDS", "log10 Kd, replicates": "n.d. n.d. n.d.", "log10 Kd (nM), mean": "n.d.", "control signals": "0 of 9"}
{"CDR-H1": "GFTLNSYGIS", "CDR-H2": "VIYSNGRRTFYGDLVK", "CDR-H3": "GRAAPTFDS", "log10 Kd, replicates": "n.d. n.d. n.d.", "log10 Kd (nM), mean": "n.d.", "control signals": "0 of 9"}

Empty control strains, which show no peptide, gave a signal in 15% of pairings with library AAYL49; the median was 4.06 and 95% of these signals were weaker than 2.83. No background was subtracted. Also given: how often the same scFv was detected with the empty control strains, with their mean in brackets.